Experimental data published in patent US10064954B2, “Polymer-cyclodextrin-lipid conjugates” (priority 2015, dated 2018).

Format: physicochemical
Experimental: 1% (w/v) of propofol was prepared in a saline based solution with different PEG-carbohydrate conjugates. Table 6 listed the minimum concentration of the conjugates required to solublize propofol as a solubility test reference.

cholesterolpropanediamine-β-cyclodextrin mPEG12
Concentration (% w/v): 2.2 % w/v
